pIC50: −log10 of the molar value.
Target: TRKA (Homo sapiens (Human), UniProt P04629)
Experiment: Isolated TRK enzyme assay (HTRF KinEASE-TK), TRKA
Format: biochemical

Amino acid sequences for entries named in this document (tags omitted). Residues count along the entry.
UniProt P04629, 441-796: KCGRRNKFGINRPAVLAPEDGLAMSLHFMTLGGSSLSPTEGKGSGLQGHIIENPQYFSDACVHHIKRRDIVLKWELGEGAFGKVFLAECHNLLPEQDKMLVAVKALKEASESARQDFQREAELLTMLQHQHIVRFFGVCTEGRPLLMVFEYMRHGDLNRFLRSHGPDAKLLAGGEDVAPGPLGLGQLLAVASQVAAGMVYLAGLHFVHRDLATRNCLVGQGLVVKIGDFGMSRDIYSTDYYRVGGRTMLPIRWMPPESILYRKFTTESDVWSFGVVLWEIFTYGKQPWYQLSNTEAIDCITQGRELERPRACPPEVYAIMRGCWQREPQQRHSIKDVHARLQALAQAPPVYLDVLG

## 4-benzoyl-N-alpha-(tert-butoxycarbonyl)-N-{5-[(7-isopropyl-7H-pyrrolo[2,3-d]pyrimidin-5-yl)carbonyl]pyridin-3-yl}-L-phenylalaninamide [Example 286]
  pIC50: 7.71

Source: US8846698B2, “Pyrrolo[2,3-d]pyrimidine tropomysin-related kinase inhibitors” (Pfizer Limited, priority 2011, dated 2014)
